Assay results published in patent publication US7435747B2, “Guanidine and amidine derivatives as factor Xa inhibitors” (Sanofi-Aventis Deutschland GmbH, priority 2000, dated 2008).

The chains behind the UniProt entries cited, without tags or fusion partners. Residues count along the entry.
UniProt P00742, 41-179 partner limits assumed: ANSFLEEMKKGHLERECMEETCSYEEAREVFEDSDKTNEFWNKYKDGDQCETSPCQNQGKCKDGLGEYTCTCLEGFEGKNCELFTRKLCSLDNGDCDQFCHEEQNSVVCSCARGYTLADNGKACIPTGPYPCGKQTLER
UniProt P00742, 235-488 limits assumed: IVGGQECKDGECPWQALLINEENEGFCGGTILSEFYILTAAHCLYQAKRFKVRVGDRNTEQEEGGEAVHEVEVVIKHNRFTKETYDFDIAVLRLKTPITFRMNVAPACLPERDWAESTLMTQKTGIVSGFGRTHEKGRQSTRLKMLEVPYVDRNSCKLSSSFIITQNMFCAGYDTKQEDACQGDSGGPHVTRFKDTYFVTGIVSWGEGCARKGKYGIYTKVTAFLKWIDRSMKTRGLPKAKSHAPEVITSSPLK

Target: T1, human factor Xa (Homo sapiens, UniProt P00742)
T1 construct: 25 μl human factor Xa (Enzyme Research Laboratories, Inc; South Bend, Ind.); purchased Enzyme Research Laboratories, Inc; South Bend, Ind
Assay: Factor Xa chromogenic assay (substrate S-2765)
Format: biochemical
Conditions: Ki calculated from IC50 corrected for substrate competition; 25° C., 0.5 nM enzyme, 140 μM substrate S-2765; read-out: Ki(FXa), inhibition constant for inhibition of factor Xa
Method: The ability of the compounds of the formula I to inhibit factor Xa or factor VIIa or other enzymes like thrombin, plasmin, or trypsin can be assessed by determining the concentration of the compound of the formula I that inhibits enzyme activity by 50%, i. e. the IC50 value, which is related to the inhibition constant Ki. Purified enzymes are used in chromogenic assays. […]
The assay was performed by pre-incubating the compound of formula I plus enzyme for 10 min. […] The initial velocity of chromogenic substrate hydrolysis was measured by the change in absorbance at 405 nm using a Bio-tek Instruments kinetic plate reader (Ceres UV900HDi) at 25° C. during the linear portion of the time course (usually 1.5 min after addition of substrate). […]

Cc1ccc(C(=O)NCC2CCN(/C(N)=N/C(=O)OCc3ccccc3)CC2)cc1OCCc1ccc(Cl)cc1Cl [Example 14, {Amino-[4-({3-[2-(2,4-dichloro-phenyl)-ethoxy]-4-methyl-benzoylamino}-methyl)-piperidin-1-yl]-methylene}-carbamic acid benzyl ester]
Ki: 5.08 µM
